Patent US11220486B2 (La Jolla Institute of Allergy & Immunology, priority 2014, dated 2022)

Chains of the proteins cited; added tags and fusions are not shown.
UniProt P24666, whole entry: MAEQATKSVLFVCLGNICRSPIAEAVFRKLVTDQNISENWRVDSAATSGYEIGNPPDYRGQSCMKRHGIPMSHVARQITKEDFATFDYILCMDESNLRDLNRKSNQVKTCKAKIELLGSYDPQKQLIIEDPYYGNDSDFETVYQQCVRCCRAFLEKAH

Target: LMPTP-A (Low Molecular Weight Protein Tyrosine Phosphatase-A) enzyme (Homo sapiens (Human), UniProt P24666)
Assay: LMPTP primary screening / LMPTP (OMFP) enzyme inhibition assay, fluorescence intensity
Assay type: biochemical
Conditions: SAR discussion

c1ccc(-c2cc(N3CCCCC3)c3ccccc3n2)cc1
potency in the LMPTP (OMFP) assay, in words: potency was less than the screening hit
